{"source": "patent US6296870A", "about": "“Liposomes containing active agents” (Duke University, priority 1998, dated 2001)", "key": {"[1]": {"experiment": "TAXOL solubilized in MOPC micelle suspension", "type": "physicochemical", "protocol": "The concentration of TAXOL® in aqueous solution or aqueous micelle suspension was detected and measured using spectrophotometric absorbance at a wavelength of 230 nm (FIG. 21). The concentration of TAXOL® in a solution or suspension could be measured in the range of 5-50 micromolar. For concentrations higher than 50 micromolar, samples were diluted in methanol and the original concentrations were back-calculated.\nSamples were prepared containing the required aliquot of TAXOL® in methanol and MOPC (a micelle forming surfactant) in chloroform. These components were mixed together in glass culture tubes, and the mixture was dried and kept under vacuum for approximately 15 hours to evaporate the solvent. MOPC was chosen because it has an acyl chain composition that matches the di-chain phospholipid, stearoyloleoylphosphatidylcholine, that was used to form the lipid bilayers of encapsulating liposomes, as discussed below. […] Surfactants with high CMCs (e.g., in the mM range) readily dissolve lipid membranes, even when the membranes contain cholesterol.\nThe dried MOPC/TAXOL® film was then hydrated with buffer (10 mM phosphate buffer in 0.8% saline at pH 7.4), centrifuged at 2000 rpm for ten minutes to spin down any undissolved TAXOL® (depending on the ratio of MOPC to TAXOL®, the drug can precipitate out as small crystals detectable with an optical light microscope). The remaining supernatant is then dissolved in methanol and assayed for TAXOL® content. TAXOL® was quantified against the calibration curve of TAXOL® in methanol (FIG. 21). The graph of FIG. 22 represents the maximum amount of TAXOL® in aqueous micelle suspension as a function of time after preparation.\nTo evaluate how much TAXOL® can be solubilized by MOPC micelles as a function of MOPC concentration, we measured the amount of TAXOL® solubilized by MOPC micelles as the concentration of MOPC was increased from 0 to 20 mM. […] It is expected that TAXOL® will keep pace with MOPC concentration, possibly up to the solubility limit of MOPC which is in the molar range. […]"}, "[2]": {"experiment": "TAXOL loading in liposomes hydrated with micellized MOPC/TAXOL", "type": "physicochemical", "conditions": "micellized MOPC 1.5 mM / 0.25 mM TAXOL"}}}
{"compound": "CC(=O)O[C@H]1C(=O)[C@@]2(C)[C@H]([C@H](OC(=O)c3ccccc3)[C@]3(O)C[C@H](OC(=O)[C@H](O)[C@@H](NC(=O)c4ccccc4)c4ccccc4)C(C)=C1C3(C)C)[C@]1(OC(C)=O)CO[C@@H]1C[C@@H]2O", "note": "[TAXOL®]", "values": [{"measurement": "limiting TAXOL/MOPC mole ratio in micelles", "setting": "[1]", "value": 0.2, "unit": "mole ratio"}, {"measurement": "TAXOL relative to its natural solubility limit", "setting": "[1]; 1 mM in micelle suspension", "value": 1000, "unit": "times"}, {"measurement": "precipitation of TAXOL from micelles", "setting": "[1]; increasing amounts of TAXOL", "value": "does not occur significantly for the first four hours, but then proceeds rapidly as higher amounts of TAXOL® are solubilized"}, {"measurement": "TAXOL relative to its natural solubility limit", "setting": "[2]", "value": 250, "unit": "times"}]}
